# Measured values as given in article PMC9039622, “Triglyceride-Mimetic Prodrugs of Buprenorphine Enhance Oral Bioavailability via Promotion of Lymphatic Transport” (Frontiers in Pharmacology, 2022).
# Marks after values point to notes of the source that are not given here.
# How the values were obtained:
# [1] = Bioavailability / pharmacokinetic study in conscious, carotid artery cannulated rats; type: in vivo, Male Sprague-Dawley rats
# Experimental: All animal experiments were approved by the Monash Institute of Pharmaceutical Sciences animal ethics committee and were conducted in accordance with the Australian and New Zealand Council for the Care of Animals in Research and Teaching guidelines. Male Sprague-Dawley rats (270–320 g) were maintained on a standard diet and fasted overnight with free access to water prior to experiments. In experiments where surgical anaesthesia was required (i.e., for the cannulation of the carotid artery, jugular vein, and mesenteric lymph duct), rats were anaesthetised using a combination of ketamine, xylazine and acepromazine and placed on a heated pad at 37°C as described previously ([Johnson et al., 2003]). At the end of experiments rats were euthanised via intraperitoneal, intra-arterial or intravenous (when an indwelling cannula was present) administration of 100 mg pentobarbitone.
# The systemic exposure of BUP was examined after oral administration of BUP or BUP prodrugs in carotid artery cannulated conscious rats (for the group of animals that received BUP intravenously (IV), the jugular vein was also cannulated for IV infusion). After surgery and recovery, the rats were housed in Culex Automated Blood Sampler systems (BASi, West Lafayette, Indian, United States) with free movement as described previously ([Mannila et al., 2012]). After drug administration via bolus oral gavage or IV infusion (over 5 min), blood samples (150 µl) were taken from the carotid artery cannula 5 min prior to administration and up to 24 h post-dosing and centrifuged at 4,500 g for 5 min to separate plasma. During the blood sample collection period the rats had free access to water at all times but remained fasted for a further 8 h following drug administration. Plasma samples were stored at −20°C prior to analysis for BUP as described in the Supplementary Material. The area under the plasma concentration-time curves from zero to designated time intervals (AUC0-t) were calculated using the linear trapezoidal method. The oral bioavailability of BUP was estimated via comparison of dose normalised AUC0–6h following oral dosing of BUP or TG prodrugs with the AUC0-inf following IV infusion of BUP (AUC0-inf was calculated via the addition of Ct/k to AUC0-t, where Ct is the last observed quantifiable concentration and k is the terminal phase elimination rate constant). Truncated AUCs (AUC0–6h) were used for the oral pharmacokinetic studies due to the presence of a second peak in the BUP plasma concentration versus time profile, most likely reflecting enterohepatic recycling ([Ohtani et al., 1994]).
# To determine BUP concentrations in plasma or lymph, 20 µl plasma or lymph samples were diluted 1:3 or 1:10 v/v with methanol respectively. The samples were then vortexed for 1 min, centrifuged at 4500 g for 5 min and 50 µl or 150 µl of supernatant analysed by HPLC-MS/MS. As the TG prodrugs were expected to undergo resynthesis with potentially multiple different available fatty acids in the enterocyte and therefore to generate a variety of glyceride derivatives of BUP for transport into the lymph, two hydrolytic methods were developed to quantify total BUP derivatives in the lymph. For analysis of the samples collected after administration of BUP-C4-TG, BUP-CE-C4-TG, BUP-TML-C4-TG and BUP-C5βMe-TG, hydrolysis of potential glyceride derivatives of BUP in lymph was achieved via addition of 100 µl 0.5 M NaOH in 1:1 (v/v) ethanol:water to 20 µl of lymph and heating at 60 °C for 90 min. […]
# [2] = limited by intestinal and hepatic first-pass metabolism; ref Taylor et al., 2013; cited from earlier work
substance,measurement,setting,value
Buprenorphine,AUC (0-inf) of BUP in plasma,"[1]; IV infusion over 5 min, 10 µg, normalized to 0.06 mg/kg BUP, Mean ± SEM",60.7 ± 5.8 ^a nM × h
same,Tmax,"[1]; IV infusion, Mean ± SEM",4.8 ± 0 min
same,Cmax of BUP,"[1]; IV infusion, normalized to 0.06 mg/kg BUP, Mean ± SEM",215 ± 44 ^a nM
same,BA (% of IV),[1]; IV reference group,100%
same,time to peak plasma concentration,[1]; oral bolus dose by gavage,15 min
same,oral bioavailability (BA),[2],less than 10%
